Protein sequences, listed by entry. Tags and fused reporters are not part of them.
UniProt O14791, whole entry S342G/I384M: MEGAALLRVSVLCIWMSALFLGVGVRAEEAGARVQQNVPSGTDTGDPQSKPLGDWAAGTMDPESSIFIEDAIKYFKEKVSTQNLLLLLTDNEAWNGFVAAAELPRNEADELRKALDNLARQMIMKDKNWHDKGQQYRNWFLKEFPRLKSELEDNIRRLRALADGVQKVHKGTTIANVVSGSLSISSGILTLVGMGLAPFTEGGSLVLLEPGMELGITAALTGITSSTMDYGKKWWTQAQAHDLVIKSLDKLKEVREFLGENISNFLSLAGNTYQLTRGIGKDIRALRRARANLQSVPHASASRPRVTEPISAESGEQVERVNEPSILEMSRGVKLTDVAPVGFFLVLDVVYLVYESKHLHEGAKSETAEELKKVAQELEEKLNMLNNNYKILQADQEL

What follows are compounds tested against APOL1 (Homo sapiens, UniProt O14791) (assay: MultiTox-Fluor Multiplex Cytotoxicity Assay in tet-inducible APOL1 T-REx-HEK293 cells (cell rescue, ratio of dead to live cells)). Settings: read-out: IP50 (i.e., IC50 for cell proliferation); tet-inducible transgenic APOL1 T-REx-HEK293 cell lines, 50 ng/mL tet, 24 hours.
In the case of `CCc1cc2c(s1)CCOC21CCN(Cc2cnn(C)c2)CC1C` (stereo not drawn), the IC50 is reported as 500 to 1000 nM. `CC1COC2(CCN(Cc3cnn(C)c3)CC2)c2cc(Cl)sc21` (single isomer, unassigned) showed an IC50 of 100 to 500 nM. For `C[C@H]1C[C@@]2(CCN1Cc1cnn(CCS(C)(=O)=O)c1)OCC(O)(C(F)(F)F)c1cc(Cl)sc12` (stereo partly drawn) [Compound 852, (2′S,7R)-2-chloro-2′-methyl-1′-[[1-(2-methylsulfonylethyl)pyrazol-4-yl]methyl]-4-(trifluoromethyl)spiro[5H-thieno[2,3-c]pyran-7,4′-piperidine]-4-ol], the IC50 was under 100 nM.
